Test system: tPA
Type: biochemical, human

native albumin: murine serum albumin, native
tPA/plasminogen activating potential of protein/antigen preparation: not reflected by stimulation of tPA activation
